Target: T1, Androgen Receptor (AR) (Homo sapiens, UniProt P10275, T878A)
T1 construct: cell based immuno-fluorescence assay using the LNCaP prostate epithelial cell line; endogenous in cells; host or cells: LNCaP clone FGC (ATCC CRL-1740)
Experiment: LNCaP Androgen Receptor Down-regulation Cell Assay (immunofluorescence end point)
Type: cell-based
Details: read-out: Androgen Receptor Down-regulation Assay (a) IC50/μM
Method: The ability of compounds to reduce Androgen Receptor (AR) numbers was assessed in a cell based immuno-fluorescence assay using the LNCaP prostate epithelial cell line.
a) LNCaP Androgen Receptor Down-regulation Cell Assay
A 5 ml volume of Growth Medium was added to each flask (as above except that 5% (v/v) charcoal stripped FBS (HyClone Code no. SH30068.03) was included instead of 10% (v/v) FBS). Cells were syringed at least twice using a sterile 18G×1.5″ (1.2×40 mm) broad gauge needle and cell density was measured using a haemocytometer.
Test data reported herein was generated using two different compounds preparation and dosing methods. […]
Immunostaining was performed at room temperature. […] Then 50 μl of PBST was added to each well and plates were covered with a black plate seal and stored at 4° C. before being read. Plates were read within six hours of completing the immunostaining.
The Green Fluorescent AR-associated signal in each well was measured using an Acumen Explorer HTS Reader (TTP Labtech Ltd., Cambridge). […] The instrument is a laser-scanning fluorescence microplate cytometer which samples the well at regular intervals and uses threshold algorithms to identify all fluorescent intensities above the solution background without the need to generate and analyse an image. These fluorescent objects can be quantified and provide a measure of the AR levels in cells. […]

Amino acid sequences for entries named in this document (tags omitted).
UniProt P10275, whole entry T878A: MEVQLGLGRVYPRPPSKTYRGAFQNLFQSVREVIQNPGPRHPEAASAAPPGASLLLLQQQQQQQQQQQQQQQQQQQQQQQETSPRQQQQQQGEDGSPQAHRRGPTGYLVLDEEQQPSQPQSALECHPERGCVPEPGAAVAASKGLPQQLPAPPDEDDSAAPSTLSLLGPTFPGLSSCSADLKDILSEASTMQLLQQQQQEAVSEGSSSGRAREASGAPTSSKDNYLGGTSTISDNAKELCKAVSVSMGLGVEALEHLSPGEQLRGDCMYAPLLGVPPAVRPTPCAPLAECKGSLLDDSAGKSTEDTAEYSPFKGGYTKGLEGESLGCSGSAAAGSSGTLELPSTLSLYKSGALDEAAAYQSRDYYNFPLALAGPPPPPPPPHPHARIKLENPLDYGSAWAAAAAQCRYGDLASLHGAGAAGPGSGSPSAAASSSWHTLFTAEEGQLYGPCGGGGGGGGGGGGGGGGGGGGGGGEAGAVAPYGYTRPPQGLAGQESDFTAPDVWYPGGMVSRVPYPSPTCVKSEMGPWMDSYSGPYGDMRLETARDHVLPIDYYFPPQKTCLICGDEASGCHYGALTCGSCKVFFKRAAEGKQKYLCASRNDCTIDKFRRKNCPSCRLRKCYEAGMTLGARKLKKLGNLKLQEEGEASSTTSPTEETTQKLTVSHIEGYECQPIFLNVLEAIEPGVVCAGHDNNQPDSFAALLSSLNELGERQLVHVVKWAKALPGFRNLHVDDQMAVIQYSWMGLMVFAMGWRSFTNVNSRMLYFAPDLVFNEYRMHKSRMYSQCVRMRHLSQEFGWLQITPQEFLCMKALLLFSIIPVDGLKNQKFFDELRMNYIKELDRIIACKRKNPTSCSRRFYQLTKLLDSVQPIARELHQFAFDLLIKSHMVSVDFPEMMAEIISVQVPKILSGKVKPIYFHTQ

Structure (SMILES): Fc1ccc(CN2CCN(c3ccc4nnc(C(F)(F)F)n4n3)CC2)cc1 [Example 45, 6-[4-[(4-fluorophenyl)methyl]piperazin-1-yl]-3-(trifluoromethyl)-[1,2,4]triazolo[4,3-b]pyridazine]
- DC50: 1.4 µM
